For series [1], the target named is T1, HDAC1 (Homo sapiens, UniProt Q13547).
T1 construct: purchased Eurofins Pharma Discovery Services 2491
The series is described as follows: HDAC enzymatic activity (Eurofins). In kind it is biochemical. The conditions noted are these: Class I; ACY-1083 mean of two separate measurements, Ricolinostat and Tubastatin A one measurement.

Sequences of proteins named here, by UniProt entry; tags and fusion partners are left off.
UniProt Q13547, whole entry: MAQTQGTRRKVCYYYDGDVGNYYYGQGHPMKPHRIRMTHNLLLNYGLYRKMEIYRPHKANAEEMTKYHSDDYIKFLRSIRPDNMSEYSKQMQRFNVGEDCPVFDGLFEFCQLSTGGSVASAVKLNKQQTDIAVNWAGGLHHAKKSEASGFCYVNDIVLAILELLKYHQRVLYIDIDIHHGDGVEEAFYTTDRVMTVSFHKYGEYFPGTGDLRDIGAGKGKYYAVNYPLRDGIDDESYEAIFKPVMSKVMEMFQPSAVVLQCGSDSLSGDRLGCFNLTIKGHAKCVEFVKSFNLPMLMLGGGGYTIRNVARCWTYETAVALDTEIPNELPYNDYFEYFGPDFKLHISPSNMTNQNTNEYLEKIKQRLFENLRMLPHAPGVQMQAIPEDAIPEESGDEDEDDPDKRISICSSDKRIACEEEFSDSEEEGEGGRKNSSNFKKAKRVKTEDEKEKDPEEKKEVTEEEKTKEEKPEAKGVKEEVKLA
UniProt Q92769, whole entry: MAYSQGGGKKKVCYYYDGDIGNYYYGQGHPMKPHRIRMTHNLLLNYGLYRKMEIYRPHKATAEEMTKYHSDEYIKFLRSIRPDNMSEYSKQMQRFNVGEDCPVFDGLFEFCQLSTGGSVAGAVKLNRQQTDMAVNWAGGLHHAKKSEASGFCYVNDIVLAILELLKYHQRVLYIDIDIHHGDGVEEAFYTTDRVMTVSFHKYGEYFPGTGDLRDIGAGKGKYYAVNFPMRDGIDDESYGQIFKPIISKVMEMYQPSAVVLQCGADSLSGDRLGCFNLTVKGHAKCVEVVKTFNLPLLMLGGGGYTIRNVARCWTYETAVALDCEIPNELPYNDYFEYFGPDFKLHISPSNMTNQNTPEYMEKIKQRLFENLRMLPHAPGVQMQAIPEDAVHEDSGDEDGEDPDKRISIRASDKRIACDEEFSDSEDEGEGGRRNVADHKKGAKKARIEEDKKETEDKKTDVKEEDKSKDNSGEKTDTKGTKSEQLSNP
UniProt Q14524, whole entry: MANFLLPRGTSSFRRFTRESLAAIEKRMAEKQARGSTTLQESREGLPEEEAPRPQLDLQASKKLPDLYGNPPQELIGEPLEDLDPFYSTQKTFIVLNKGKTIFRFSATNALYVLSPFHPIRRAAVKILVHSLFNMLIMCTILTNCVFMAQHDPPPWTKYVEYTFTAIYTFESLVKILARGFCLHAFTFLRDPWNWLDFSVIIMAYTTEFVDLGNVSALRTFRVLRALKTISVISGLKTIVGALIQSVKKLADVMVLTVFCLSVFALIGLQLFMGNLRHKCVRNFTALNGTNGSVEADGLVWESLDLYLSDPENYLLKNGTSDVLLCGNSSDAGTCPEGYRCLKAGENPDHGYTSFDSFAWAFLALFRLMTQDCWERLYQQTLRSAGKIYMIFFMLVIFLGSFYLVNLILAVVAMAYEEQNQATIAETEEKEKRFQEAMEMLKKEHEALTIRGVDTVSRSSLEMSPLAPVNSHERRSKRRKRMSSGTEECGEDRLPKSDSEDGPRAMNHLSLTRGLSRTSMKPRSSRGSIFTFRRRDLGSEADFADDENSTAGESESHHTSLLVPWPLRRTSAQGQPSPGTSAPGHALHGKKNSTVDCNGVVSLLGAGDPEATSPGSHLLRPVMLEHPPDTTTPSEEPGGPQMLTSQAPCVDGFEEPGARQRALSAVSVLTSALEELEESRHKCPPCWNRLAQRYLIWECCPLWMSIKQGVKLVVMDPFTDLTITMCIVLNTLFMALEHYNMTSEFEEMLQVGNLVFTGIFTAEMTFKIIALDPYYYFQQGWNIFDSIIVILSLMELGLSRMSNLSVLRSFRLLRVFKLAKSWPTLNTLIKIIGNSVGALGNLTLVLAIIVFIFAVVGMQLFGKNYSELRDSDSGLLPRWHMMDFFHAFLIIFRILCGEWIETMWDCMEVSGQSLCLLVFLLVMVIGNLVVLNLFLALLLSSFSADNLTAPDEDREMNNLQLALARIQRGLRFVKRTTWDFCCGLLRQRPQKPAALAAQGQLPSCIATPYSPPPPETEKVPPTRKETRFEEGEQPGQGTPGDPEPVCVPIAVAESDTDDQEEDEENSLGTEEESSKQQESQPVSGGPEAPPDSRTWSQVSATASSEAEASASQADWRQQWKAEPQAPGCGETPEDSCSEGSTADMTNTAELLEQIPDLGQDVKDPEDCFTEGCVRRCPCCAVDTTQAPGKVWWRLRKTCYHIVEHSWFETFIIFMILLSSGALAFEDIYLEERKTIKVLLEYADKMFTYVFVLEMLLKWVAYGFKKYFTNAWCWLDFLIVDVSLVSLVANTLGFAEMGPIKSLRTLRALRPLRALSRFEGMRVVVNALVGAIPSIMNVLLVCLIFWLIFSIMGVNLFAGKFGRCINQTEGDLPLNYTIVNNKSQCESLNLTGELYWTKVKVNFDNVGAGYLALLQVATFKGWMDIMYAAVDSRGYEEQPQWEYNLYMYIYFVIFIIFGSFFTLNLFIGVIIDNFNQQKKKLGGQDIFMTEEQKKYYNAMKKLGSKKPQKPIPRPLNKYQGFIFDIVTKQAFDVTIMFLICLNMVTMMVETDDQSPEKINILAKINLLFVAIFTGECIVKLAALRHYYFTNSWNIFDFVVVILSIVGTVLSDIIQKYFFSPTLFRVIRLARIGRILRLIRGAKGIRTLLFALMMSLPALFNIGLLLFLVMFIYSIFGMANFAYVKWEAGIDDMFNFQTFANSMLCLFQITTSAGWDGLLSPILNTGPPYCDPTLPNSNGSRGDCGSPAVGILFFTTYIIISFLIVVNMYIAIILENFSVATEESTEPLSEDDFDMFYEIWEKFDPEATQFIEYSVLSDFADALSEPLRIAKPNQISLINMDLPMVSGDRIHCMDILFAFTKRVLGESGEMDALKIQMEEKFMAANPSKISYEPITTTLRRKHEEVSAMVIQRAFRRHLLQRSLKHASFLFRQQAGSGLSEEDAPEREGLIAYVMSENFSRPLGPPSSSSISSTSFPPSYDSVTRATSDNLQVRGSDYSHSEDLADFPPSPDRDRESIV

Series [2] deals with T2, HDAC2 (Homo sapiens, UniProt Q92769).
T2 construct: purchased Eurofins Pharma Discovery Services 2492
The series is described as follows: HDAC enzymatic activity (Eurofins). In kind it is biochemical. Particulars: Class I; ACY-1083 mean of two separate measurements, Ricolinostat and Tubastatin A one measurement.

For series [3], the target named is T3, HDAC6 (Homo sapiens, UniProt Q9UBN7).
T3 sequence (Q9UBN7 1-1215): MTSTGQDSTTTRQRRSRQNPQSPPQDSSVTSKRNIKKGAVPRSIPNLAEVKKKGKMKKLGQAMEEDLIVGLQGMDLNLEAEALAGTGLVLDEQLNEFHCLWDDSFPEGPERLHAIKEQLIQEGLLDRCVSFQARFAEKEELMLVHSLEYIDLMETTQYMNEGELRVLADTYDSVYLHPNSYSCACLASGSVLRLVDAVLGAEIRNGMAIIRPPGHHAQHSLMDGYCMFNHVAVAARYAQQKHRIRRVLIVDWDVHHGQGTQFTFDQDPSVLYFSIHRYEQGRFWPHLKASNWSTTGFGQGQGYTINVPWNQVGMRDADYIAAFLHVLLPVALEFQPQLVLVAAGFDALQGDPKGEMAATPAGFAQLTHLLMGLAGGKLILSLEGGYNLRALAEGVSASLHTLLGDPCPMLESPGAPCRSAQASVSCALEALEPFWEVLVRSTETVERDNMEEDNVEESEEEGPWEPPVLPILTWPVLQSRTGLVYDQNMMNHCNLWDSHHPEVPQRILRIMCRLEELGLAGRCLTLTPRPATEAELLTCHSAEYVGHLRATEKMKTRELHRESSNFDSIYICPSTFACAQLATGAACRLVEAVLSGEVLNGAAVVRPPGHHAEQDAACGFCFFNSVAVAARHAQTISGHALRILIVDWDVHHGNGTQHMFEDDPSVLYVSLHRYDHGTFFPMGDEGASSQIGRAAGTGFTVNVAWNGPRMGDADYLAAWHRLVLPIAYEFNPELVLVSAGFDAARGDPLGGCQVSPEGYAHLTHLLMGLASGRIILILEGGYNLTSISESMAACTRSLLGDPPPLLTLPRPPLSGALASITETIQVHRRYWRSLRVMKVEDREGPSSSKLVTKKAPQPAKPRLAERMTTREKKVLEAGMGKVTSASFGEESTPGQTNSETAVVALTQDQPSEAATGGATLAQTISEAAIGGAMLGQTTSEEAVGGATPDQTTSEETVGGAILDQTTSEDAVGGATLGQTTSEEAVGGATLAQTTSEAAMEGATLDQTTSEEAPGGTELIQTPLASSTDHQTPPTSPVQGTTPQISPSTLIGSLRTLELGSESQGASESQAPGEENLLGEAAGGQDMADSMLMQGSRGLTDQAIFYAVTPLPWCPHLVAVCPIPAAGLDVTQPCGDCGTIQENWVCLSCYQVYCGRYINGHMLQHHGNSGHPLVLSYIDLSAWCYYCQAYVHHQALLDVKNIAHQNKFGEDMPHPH
The series can be described thus: HDAC enzymatic activity (Eurofins). The conditions noted are these: HDAC enzyme panel. In kind it is biochemical.

Series [4] in a line: Secondary pharmacology panel of >190 in vitro radioligand binding and enzyme assays. Particulars: only COX2, DAT and Sigma-1 receptor active below 30 μM.
Series [5] addresses Nav1.5 (Homo sapiens, UniProt Q14524). Particulars: CHO K1 cell line, room temperature, 6 point cumulative assay.
Series [6] deals with deacetylation of α-tubulin. The conditions noted are these: 10-fold of the cited cell IC50.

Take ACY-1083: in series [1], it took 17.2 µM to reach half-maximal inhibition (IC50). Moreover, the midpoint of inhibition in series [2], the IC50, lay at 70.7 µM. Also, in series [3], the “selectivity for HDAC6 over HDAC1, 4, 8, 9, 10 and 11” value is given as over 1000 fold; the “selectivity for HDAC6 over HDAC2 and 3” value is over 7000 fold; the “selectivity for HDAC6 towards HDAC5 and HDAC7” value was over 400 fold. In series [4], the “selectivity in panel of >190 in vitro radioligand binding and enzyme assays” value is given as “excellent selectivity”. The “activity on Nav1.5” value in series [5] is over 30 µM. For the same substance, the “concentration for full HDAC6 blockade (10-fold IC50 from a cell assay)” value in series [6] was 0.3–1 μM.

These data come from paper PMC9555642 (PLoS ONE, 2022).
